Assays:
[1] = Solubility in H2O (deionized water)
[2] = Solution pH in deionized water; format: physicochemical; details: H2O
Protocol: The test compound was mixed in 5 ml of deionized water to achieve a 2 mg/ml solution. The solution pH was measured using a Beckman pH meter.

[3] = Octanol/water partition coefficient; format: physicochemical
Protocol: The partition coefficient was measured using an adaptation of the procedure outlined in Drug Stability: Principles and Practices (AAI, Inc. Wilmington, N.C., 2nd Edition, 1995). A 10 ml solution of 10 mg/ml of the test compound of Formula I dissolved in deionized water was placed in a separator funnel, to which 10 ml of 1-octanol was added. The combined mixture was stirred. The mixture was left to separate and the absorption of the compound was measured in the water phase and in the octanol phase by UV/Vis at 413-417 nm (413-417 offers the closest match in absorbance between the octanol phase and the water phase. The octanol water partition coefficient is determined by the formula: […]
The above steps were then repeated using a 10 ml sample of test compound at 1.0 mg/ml.

[4] = Extinction coefficient by UV/Vis; format: physicochemical; details: in M-1·cm-1 (unit assumed)
Protocol: Four samples of increasing amounts of a test compound of Formula I (between 3 mg and 11 mg) were put into separate 10 ml flasks and dissolved in methanol. Each of the solutions and one control sample (containing no test compound) were diluted to volume. The absorption at 475 nm was measured by UV/Vis and recorded for each of the five samples. The extinction coefficient for each sample was determined accordingly.
The extinction coefficient for the test compound at 475 nm was determined by averaging the extinction coefficient for the four samples (not including the control). The above steps were repeated (at 733 nm) to determine the extinction coefficient for the test compound at 733 nm. When determining the extinction coefficient of aggregated test compounds LuTex acetate, cholate or deoxycholate, the extinction coefficient at 733 nm is not measured. Instead, the above steps were repeated substituting 4% acetic acid/methanol for methanol.

[5] = Plasma concentration after injection in atherosclerotic rabbits; format: in vivo, NZW rabbits; details: rabbit, 10 mg/kg injected
Protocol: Plasma pK and biodistribution of the different test compounds of Formula I in plaque are determined and compared with the plasma pK and biodistribution in normal arterial walls. Sixteen normal male NZW rabbits, each weighing 3.5-4.0 kg are obtained from R&R Rabbitry in Stanwood Oreg. Each rabbit is given an intramuscular injection of Ketamine/Rompun [(8.4 mg/kg)/(1.2 mg/kg)] and allowed to relax until the anesthetic takes effect. To induce deep anesthesia, the rabbits then receive a second dose of Ketamine/Rompun [(8.4 mg/kg)/1.2 mg/kg)] via intravenous injection. To expose the abdomen and back legs, each rabbit is shaved with a size 40 blade. Their eyes are coated with lubricant eye ointment (Artificial Tears).
A femoral artery cut down is performed on the right side of the rabbits. Lidocaine (2%) is injected subcutaneously around the femoral artery as a local anesthetic and also applied topically to prevent spasms. A No.4 French Fogarty balloon embolectomy catheter is inserted retrograde 15 cm into the abdominal aorta. The balloon is inflated with 0.5-0.75 ml of hypaque contrast and pulled 3.5 cm distally toward the femoral artery six times. The catheter is then withdrawn. The incision line on the underlying muscle is sutured with 3-0 absorbable chromic gut (Ethicon) and the skin is sutured with 2-0 silk (Ethicon). The rabbits are allowed to recover before being placed back into their respective cages and are placed on a 2% cholesterol diet for 6-8 weeks.
A 3 ml blood sample is taken from each of the rabbits and the cholesterol level for each sample is determined and recorded. Fourteen of the sixteen rabbits are injected with 10 mg/kg of one of the test compounds. One of the remaining rabbits is a pure control and receives neither test compound nor buffer. The other remaining rabbit receives no test compound but does receive 5% mannitol buffer. A 3 ml blood sample is drawn from each of the rabbits at 1, 5 and 24 hours post injection. Each 3 ml blood sample is handled with minimum exposure to ambient light and spun for 10 minutes in a centrifuge at 2,000 rpm within 30 minutes of the blood draw. The supernatant (plasma) is removed by a pipette and put into a 1.8 ml cryotube. The plasma is frozen at −70° C. for future analysis (see part B of this example). All of the rabbits are sacrificed 24 hours after injection.
The clearance rate of the test compound is also particularly important to measure. Plasma samples from each of the test compounds (see part A of this example) are mixed with 10 mM Triton X-100 and the fluorescence optimum is measured at 745 nm by scanning between 700-800 nm using a 450 nm excitation. A standard curve is run to insure that the fluorescence of the samples lies on the linear portion of the curve. The entire fluorescence emission spectrum is observed by using both a monochromator and CCD array. This permits differentiating between the peak at 745 nm and any possible extraneous fluorescence that might have a different optimum, and tail off into the 745 nm region. Test compound accumulation is expressed as μg drug/g tissue (wet weight) or μg/ml in plasma.

solubility in deionized water [1]	pH [2]	K ([3]; concentration not given)	ε(methanol) ([4]; at 475 nm)	ε(methanol) ([4]; at 733 nm)	K (octanol/water) ([3]; 0.05 mg/ml)	pH(octanol/water) ([3]; 0.05 mg/ml)	K (octanol/water) ([3]; 0.5 mg/ml)	pH(octanol/water) ([3]; 0.5 mg/ml)	Plasma Concentration ([5]; 2 mg/ml solution, 1 Hour post injection)	Plasma Concentration ([5]; 2 mg/ml solution, 5 Hours post injection)	Plasma Concentration ([5]; 2 mg/ml solution, 24 Hours post injection)	Plasma Concentration ([5]; 10 mg/ml solution, 1 Hour post injection)	Plasma Concentration ([5]; 10 mg/ml solution, 5 Hours post injection)	Plasma Concentration ([5]; 10 mg/ml solution, 24 Hours post injection)	Substance
0.1 mg/mL															The lutetium (III) complex of: 4,5-diethyl-10,23-dimethyl-9,24-bis(3-hydroxypropyl)-16,17-bis[2-[2-(2-methoxyethoxy)ethoxy]ethoxy]pentaazapentacyclo[20.2.1.1^3,6.1^8,11.0^14,19]-heptacosa-1,3,5,7,9,11(27),12,14,16,18,20,22(25), 23-tridecaene bis benzoate [LuTex bis benzoate]
	6.11	2.62													The lutetium (III) complex of: 4,5-diethyl-10,23-dimethyl-9,24-bis(3-hydroxypropyl)-16,17-bis[2-[2-(2-methoxyethoxy)ethoxy]ethoxy]pentaazapentacyclo[20.2.1.1^3,6.1^8,11.0^14,19]-heptacosa-1,3,5,7,9,11 (27),12,14,16,18,20,22(25),23-tridecaene bis deoxycholate [LuTex bis deoxycholate]
	5.6		127900	42200	0.028	5.7	0.011	5.1	5.6 µg/mL	1.5 µg/mL	0.4 µg/mL	2.4 µg/mL	0.7 µg/mL	0.3 µg/mL	lutetium complex of 4,5-diethyl-10,23-dimethyl-9,24-bis(3-hydroxypropyl)-16,17-bis[2-[2-(2-methoxyethoxy)ethoxy]ethoxy]pentaazapentacyclo-[20.2.1.1^3,6.1^8,11.0^14,19]heptacosa-1,3,5,7,9,11(27),12,14,16,18,20,22(25),23-tridecaene bis gluconate [LuTex bis gluconate]

Source: US7449454B2, “Metallotexaphyrin derivatives” (Pharmacyclics, Inc., priority 2000, dated 2008)
